The record followed here is US5260210A, “Blood-brain barrier model” (priority 1990, dated 1993).

The subject of series [1] is bovine retina endothelial cells. It counts as in vitro ADME. On the procedure:
(§1) The flux of ^125 I-labeled albumin across monolayers of primary cultures of bovine retina endothelial cells and of Madin-Darby Canine Kidney epithelial cells disposed on 0.4μ pore-sized polycarbonate filters was determined as a function of tight junctions as reflected in trans-monolayer electrical resistance of each cell type. The results of such experiments are plotted in FIG. 2. The height of the bars in the histogram is a reflection of leakage of albumin through the junctions between cells--the higher the bar, the greater the leakage of albumin.

The subject of series [2] is Madin-Darby Canine Kidney epithelial cells. Put plainly: Flux of ^125 I-labeled albumin across MDCK epithelial cell monolayers. It counts as in vitro ADME. The settings on record: resistance greater than 200 ohm-cm^2. As for the experimental part:
as §1

In the case of albumin: ^125 I-labeled albumin, in series [1], the “albumin flux” value was “Substantial flux” and the “reduction of albumin flux” value stood at 75%. In series [2], the “albumin flux” value was “virtually abolished”.
